Target: D(3) dopamine receptor (Rattus norvegicus, UniProt P19020)

Amino acid sequences for entries named in this document (tags omitted).
UniProt P19020, whole entry: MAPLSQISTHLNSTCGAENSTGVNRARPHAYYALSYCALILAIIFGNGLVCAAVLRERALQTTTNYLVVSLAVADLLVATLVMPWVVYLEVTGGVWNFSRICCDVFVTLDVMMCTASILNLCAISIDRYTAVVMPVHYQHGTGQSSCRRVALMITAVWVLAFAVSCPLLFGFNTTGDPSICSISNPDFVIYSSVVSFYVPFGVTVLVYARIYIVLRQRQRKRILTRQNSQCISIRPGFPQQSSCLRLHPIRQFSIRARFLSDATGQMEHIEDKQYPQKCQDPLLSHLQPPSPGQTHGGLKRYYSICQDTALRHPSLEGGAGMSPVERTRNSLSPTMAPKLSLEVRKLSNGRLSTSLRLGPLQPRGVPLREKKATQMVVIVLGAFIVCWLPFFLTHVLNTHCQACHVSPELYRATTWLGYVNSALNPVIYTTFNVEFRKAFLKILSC

CCN1CCCC1CNC(=O)c1cc(S(=O)(=O)CC)c(N)cc1OC (stereo unspecified) [NSC_2159]
Ki: 3.5 nM

From BindingDB's records for doi:10.1007/s00213-009-1521-8 (Case Western Reserve University, 2009)
